Measurements published in PubChem BioAssay AID504327 (National Center for Advancing Translational Sciences (NCATS), 2011).
Only a part is listed here, and it is no random draw. Results filed as inconclusive are left out. Calls of active or inactive are those of the source. Calls come from the whole dose curve; as a rule, active = well fitted inhibition curve with a large enough effect; inconclusive = small, poorly fitted or top-dose-only effect, or another doubt; inactive = no such curve, though single readings can be large or run the other way.

The chains behind the UniProt entries cited, without tags or fusion partners.
UniProt Q92830, whole entry: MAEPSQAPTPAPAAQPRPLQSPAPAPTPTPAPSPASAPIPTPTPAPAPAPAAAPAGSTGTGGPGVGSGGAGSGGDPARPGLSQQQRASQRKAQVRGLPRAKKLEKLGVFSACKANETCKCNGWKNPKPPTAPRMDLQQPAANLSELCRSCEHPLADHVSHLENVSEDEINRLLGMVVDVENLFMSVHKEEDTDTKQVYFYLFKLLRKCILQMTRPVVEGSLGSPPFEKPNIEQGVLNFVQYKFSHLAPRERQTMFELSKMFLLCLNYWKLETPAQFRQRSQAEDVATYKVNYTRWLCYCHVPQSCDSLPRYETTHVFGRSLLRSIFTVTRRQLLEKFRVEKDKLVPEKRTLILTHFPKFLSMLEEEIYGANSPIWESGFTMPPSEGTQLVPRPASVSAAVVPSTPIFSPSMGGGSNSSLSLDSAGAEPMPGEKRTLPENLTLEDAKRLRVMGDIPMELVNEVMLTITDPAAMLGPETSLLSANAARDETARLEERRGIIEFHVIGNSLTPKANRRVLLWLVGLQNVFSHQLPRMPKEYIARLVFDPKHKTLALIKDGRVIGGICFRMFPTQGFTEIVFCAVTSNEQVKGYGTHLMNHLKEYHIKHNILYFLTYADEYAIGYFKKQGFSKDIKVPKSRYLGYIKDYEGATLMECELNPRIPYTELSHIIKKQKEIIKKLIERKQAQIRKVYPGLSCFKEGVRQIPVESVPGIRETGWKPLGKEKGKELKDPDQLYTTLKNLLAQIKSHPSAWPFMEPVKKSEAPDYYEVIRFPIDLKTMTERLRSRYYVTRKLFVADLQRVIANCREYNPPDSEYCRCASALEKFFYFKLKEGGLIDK

Biological target: Histone acetyltransferase KAT2A (Homo sapiens) (UniProt Q92830)
Experiment: qHTS Assay for Inhibitors of GCN5L2
Conditions: GCN5L2 HAT assay, ThioGlo1 CoA-SH fluorescence; at 58.9 µM (top of the series) unless noted
% is set by controls: 0 for no effect and ±100 for the full control effect.

Question: `COc1ccccc1OP(C)(=O)Nc1ccc(C)c(C)c1` (stereo not given) was tested. Which activity change, negative = inhibition did it give?
Answer: inactive: 1.57%

Question: Which activity change, negative = inhibition does the source give for `CP(=O)(OCCOc1ccccc1)OCCOc1ccccc1` here?
Answer: inactive: -7.2%

Question: `CP(=O)(Nc1ccc(Cl)cc1Cl)Oc1ccccc1` (stereo not given) was tested. Which activity change, negative = inhibition did it give?
Answer: inactive: -4.38%

Question: How did the activity change, negative = inhibition turn out when `Cc1nc2ccc3ccccc3c2o1.O=[N+]([O-])c1cc([N+](=O)[O-])c(O)c([N+](=O)[O-])c1` was run?
Answer: inactive: -22.7%

Question: For `COc1ccc(OP(C)(=O)Nc2ccccn2)cc1` (stereo not given), which activity change, negative = inhibition is on record?
Answer: inactive: -3.33%

Question: `COc1ccccc1OP(C)(=O)Nc1ccc(Br)cc1` (stereo not given) was tested. Which activity change, negative = inhibition did it give?
Answer: inactive: -0.239%

Question: `CCc1ccc(OP(C)(=O)O)cc1` was tested. Which activity change, negative = inhibition did it give?
Answer: inactive: -9.65%

Question: Which activity change, negative = inhibition does the source give for `COc1ccccc1OP(C)(=O)Nc1ccc(C)cc1C` (stereo not given) here?
Answer: inactive: 41.1%

Question: Which activity change, negative = inhibition does the source give for `O=[N+]([O-])c1cc([N+](=O)[O-])c(Nc2ccccn2)c([N+](=O)[O-])c1` here?
Answer: inactive: -1.11%

Question: With `Cc1c(NP(C)(=O)Oc2ccc(C(C)C)cc2)c(=O)n(-c2ccccc2)n1C` (stereo not given) as the compound, how does the activity change, negative = inhibition read?
Answer: inactive: 2.58%

Question: For `CCc1ccc(OP(C)(=O)Nc2cccnc2)cc1` (stereo not given), which activity change, negative = inhibition is on record?
Answer: inactive: -3.31%

Question: For `CP(=O)(Oc1ccccc1)N1CCOC1=O` (stereo not given), which activity change, negative = inhibition is on record?
Answer: inactive: 2.66%

Question: For `OCCSCCO`, which activity change, negative = inhibition is on record?
Answer: inactive: 20%

Question: For `O=C(OCCCN1CCCC1)C(O)(c1ccccc1)C1CCCCC1` (stereo not given), which activity change, negative = inhibition is on record?
Answer: inactive: -2.8%

Question: How did the activity change, negative = inhibition turn out when `COc1ccccc1OP(C)(=O)Nc1c(C)n(C)n(-c2ccccc2)c1=O` (stereo not given) was run?
Answer: inactive: 2.47%

Question: How did the activity change, negative = inhibition turn out when `COc1ccc(OP(C)(=O)Nc2ccc(Br)cc2)cc1` (stereo not given) was run?
Answer: inactive: 3.78%

Question: `CCN(CC)CC(O)COC(=O)C(O)(c1ccccc1)C1CCCCC1` (stereo not given) was tested. Which activity change, negative = inhibition did it give?
Answer: inactive: 1.8%

Question: With `CN(C)C(=O)c1c([N+](=O)[O-])cc([N+](=O)[O-])cc1[N+](=O)[O-]` as the compound, how does the activity change, negative = inhibition read?
Answer: inactive: -1.81%

Question: For `CP(=O)(Nc1ccc(Cl)cc1)Oc1ccc(F)cc1` (stereo not given), which activity change, negative = inhibition is on record?
Answer: inactive: -10.8%

Question: How did the activity change, negative = inhibition turn out when `CC(C)(C)c1ccc(OP(C)(=O)O)cc1` was run?
Answer: inactive: -6.06%

Question: With `COc1ccccc1OP(C)(=O)Nc1ccccc1Br` (stereo not given) as the compound, how does the activity change, negative = inhibition read?
Answer: inactive: 1.16%

Question: Which activity change, negative = inhibition does the source give for `CP(=O)(OC12CC3CC(CC(C3)C1)C2)OC12CC3CC(CC(C3)C1)C2` here?
Answer: inactive: -9.26%

Question: For `CCOC(=O)c1ccc(NP(C)(=O)Oc2ccc(Cl)cc2)cc1` (stereo not given), which activity change, negative = inhibition is on record?
Answer: inactive: 0.269%

Question: How did the activity change, negative = inhibition turn out when `CC(C)OP(=O)(F)OC(C)C` was run?
Answer: inactive: 1.49%

Question: With `C/C1=C2N=C(/C=C3N=C(/C(C)=C4\[N-][C@@](C)([C@H]5N=C1[C@@](C)(CCC(=O)NC[C@H](C)OP(=O)([O-])O[C@@H]1[C@H](O)[C@H](n6cnc7cc(C)c(C)cc76)O[C@@H]1CO)[C@@H]5CC(N)=O)[C@](C)(CC(N)=O)[C@H]4CCC(N)=O)[C@@](C)(CC(N)=O)[C@@H]\3CCC(N)=O)C(C)(C)[C@@H]/2CCC(N)=O.[C-]#N.[Co+3]` as the compound, how does the activity change, negative = inhibition read?
Answer: inactive: 3.08% [at 21.4 µM]
